According to IntAct's records for PubMed 35512704:

B1: RAC-alpha serine/threonine-protein kinase (Homo sapiens), P31749 (parent)
chain: MSDVAIVKEGWLHKRGEYIKTWRPRYFLLKNDGTFIGYKERPQDVDQREAPLNNFSVAQCQLMKTERPRPNTFIIRCLQWTTVIERTFHVETPEEREEWTTAIQTVADGLKKQEEEEMDFRSGSPSDNSGAEEMEVSLAKPKHRVTMNEFEYLKLLGKGTFGKVILVKEKATGRYYAMKILKKEVIVAKDEVAHTLTENRVLQNSRHPFLTALKYSFQTHDRLCFVMEYANGGELFFHLSRERVFSEDRARFYGAEIVSALDYLHSEKNVVYRDLKLENLMLDKDGHIKITDFGLCKEGIKDGATMKTFCGTPEYLAPEVLEDNDYGRAVDWWGLGVVMYEMMCGRLPFYNQDHEKLFELILMEEIRFPRTLGPEAKSLLSGLLKKDPKQRLGGGSEDAKEIMQHRFFAGIVWQHVYEKKLSPPFKPQVTSETDTRYFDEEFTAQMITITPPDQDDSMECVDSERRPHFPQFSYSASGTA

Variants of: B1
Conditions: with spop_human SPOP

| Variant | effect of a mutation on the interaction |
| --- | --- |
| E17K | with no effect |

Variants of: B1
Conditions: with src_human SRC

| Variant | effect of a mutation on the interaction |
| --- | --- |
| E17K | with no effect |

Variants of: B1
Conditions: with stat3_human STAT3, P40763

| Variant | effect of a mutation on the interaction |
| --- | --- |
| E17K | with no effect |

Variants of: B1
Conditions: with whr1_human WHR1, P49842

| Variant | effect of a mutation on the interaction |
| --- | --- |
| E17K | with no effect |

Variants of: B1
Conditions: with ksyk_human SYK

| Variant | effect of a mutation on the interaction |
| --- | --- |
| E17K | with no effect |

Variants of: B1
Conditions: with tfe2_human TCF3, P15923

| Variant | effect of a mutation on the interaction |
| --- | --- |
| E17K | with no effect |

Variants of: B1
Conditions: with tead1_human TEAD1

| Variant | effect of a mutation on the interaction |
| --- | --- |
| E17K | with no effect |

Variants of: B1
Conditions: with tead3_human TEAD3, Q99594

| Variant | effect of a mutation on the interaction |
| --- | --- |
| E17K | with no effect |

Variants of: B1
Conditions: with tet2_human TET2, Q6N021

| Variant | effect of a mutation on the interaction |
| --- | --- |
| E17K | with no effect |

Variants of: B1
Conditions: with tgfr2_human TGFBR2, P37173

| Variant | effect of a mutation on the interaction |
| --- | --- |
| E17K | with no effect |

Variants of: B1
Conditions: with ti17a_human TIMM17A

| Variant | effect of a mutation on the interaction |
| --- | --- |
| E17K | with no effect |

Variants of: B1
Conditions: with TMEM106B

| Variant | effect of a mutation on the interaction |
| --- | --- |
| E17K | with no effect |

Variants of: B1
Conditions: with tnfa_human TNF

| Variant | effect of a mutation on the interaction |
| --- | --- |
| E17K | with no effect |

Variants of: B1
Conditions: with vegfa_human VEGFA

| Variant | effect of a mutation on the interaction |
| --- | --- |
| E17K | with no effect |

Variants of: B1
Conditions: with wt1_human WT1, P19544

| Variant | effect of a mutation on the interaction |
| --- | --- |
| E17K | with no effect |

Variants of: B1
Conditions: with xirp2_human XIRP2, A4UGR9

| Variant | effect of a mutation on the interaction |
| --- | --- |
| E17K | with no effect |

Variants of: B1
Conditions: with 1433e_human YWHAE

| Variant | effect of a mutation on the interaction |
| --- | --- |
| E17K | with no effect |

Variants of: B1
Conditions: with zn217_human ZNF217, O75362

| Variant | effect of a mutation on the interaction |
| --- | --- |
| E17K | with no effect |

Variants of: B1
Conditions: with pcbp1_human PCBP1

| Variant | effect of a mutation on the interaction |
| --- | --- |
| E17K | disrupting interaction strength |

Variants of: B1
Conditions: with arnt_human ARNT

| Variant | effect of a mutation on the interaction |
| --- | --- |
| E17K | causing an interaction |

Variants of: B1
Conditions: with arc1a_human ARPC1A

| Variant | effect of a mutation on the interaction |
| --- | --- |
| E17K | causing an interaction |

Variants of: B1
Conditions: with arrb2_human ARRB2

| Variant | effect of a mutation on the interaction |
| --- | --- |
| E17K | causing an interaction |

Variants of: B1
Conditions: with aurkb_human AURKB

| Variant | effect of a mutation on the interaction |
| --- | --- |
| E17K | causing an interaction |

Variants of: B1
Conditions: with axin2_human AXIN2

| Variant | effect of a mutation on the interaction |
| --- | --- |
| E17K | causing an interaction |

Variants of: B1
Conditions: with bard1_human BARD1, Q99728

| Variant | effect of a mutation on the interaction |
| --- | --- |
| E17K | causing an interaction |

Variants of: B1
Conditions: with bcor_human BCOR

| Variant | effect of a mutation on the interaction |
| --- | --- |
| E17K | causing an interaction |

Variants of: B1
Conditions: with bcorl_human BCORL1, Q5H9F3

| Variant | effect of a mutation on the interaction |
| --- | --- |
| E17K | causing an interaction |

Variants of: B1
Conditions: with btk_human BTK

| Variant | effect of a mutation on the interaction |
| --- | --- |
| E17K | causing an interaction |

Variants of: B1
Conditions: with cdk6_human CDK6

| Variant | effect of a mutation on the interaction |
| --- | --- |
| E17K | causing an interaction |

Variants of: B1
Conditions: with chd1l_human CHD1L

| Variant | effect of a mutation on the interaction |
| --- | --- |
| E17K | causing an interaction |

Variants of: B1
Conditions: with chd2_human CHD2, O14647

| Variant | effect of a mutation on the interaction |
| --- | --- |
| E17K | causing an interaction |

Variants of: B1
Conditions: with ch3l1_human CHI3L1, P36222

| Variant | effect of a mutation on the interaction |
| --- | --- |
| E17K | causing an interaction |

Variants of: B1
Conditions: with dll3_human DLL3, Q9NYJ7

| Variant | effect of a mutation on the interaction |
| --- | --- |
| E17K | causing an interaction |

Variants of: B1
Conditions: with duox2_human DUOX2, Q9NRD8

| Variant | effect of a mutation on the interaction |
| --- | --- |
| E17K | causing an interaction |

Variants of: B1
Conditions: with e2f2_human E2F2, Q14209

| Variant | effect of a mutation on the interaction |
| --- | --- |
| E17K | causing an interaction |

Variants of: B1
Conditions: with e2f5_human E2F5, Q15329

| Variant | effect of a mutation on the interaction |
| --- | --- |
| E17K | causing an interaction |

Variants of: B1
Conditions: with epha7_human EPHA7, Q15375

| Variant | effect of a mutation on the interaction |
| --- | --- |
| E17K | causing an interaction |

Variants of: B1
Conditions: with erbb4_human ERBB4, Q15303

| Variant | effect of a mutation on the interaction |
| --- | --- |
| E17K | causing an interaction |

Variants of: B1
Conditions: with esr1_human ESR1, P03372

| Variant | effect of a mutation on the interaction |
| --- | --- |
| E17K | causing an interaction |

Variants of: B1
Conditions: with etv1_human ETV1, P50549

| Variant | effect of a mutation on the interaction |
| --- | --- |
| E17K | causing an interaction |

Variants of: B1
Conditions: with ezh1_human EZH1, Q92800

| Variant | effect of a mutation on the interaction |
| --- | --- |
| E17K | causing an interaction |

Variants of: B1
Conditions: with ezh2_human EZH2, Q15910

| Variant | effect of a mutation on the interaction |
| --- | --- |
| E17K | causing an interaction |

Variants of: B1
Conditions: with facd2_human FANCD2, Q9BXW9

| Variant | effect of a mutation on the interaction |
| --- | --- |
| E17K | causing an interaction |

Variants of: B1
Conditions: with fgf19_human FGF19, O95750

| Variant | effect of a mutation on the interaction |
| --- | --- |
| E17K | causing an interaction |

Variants of: B1
Conditions: with fgfp1_human FGFBP1

| Variant | effect of a mutation on the interaction |
| --- | --- |
| E17K | causing an interaction |

Variants of: B1
Conditions: with fzr1_human FZR1

| Variant | effect of a mutation on the interaction |
| --- | --- |
| E17K | causing an interaction |

Variants of: B1
Conditions: with gata1_human GATA1, P15976

| Variant | effect of a mutation on the interaction |
| --- | --- |
| E17K | causing an interaction |

Variants of: B1
Conditions: with p66b_human GATAD2B

| Variant | effect of a mutation on the interaction |
| --- | --- |
| E17K | causing an interaction |

Variants of: B1
Conditions: with gna11_human GNA11, P29992

| Variant | effect of a mutation on the interaction |
| --- | --- |
| E17K | causing an interaction |

Variants of: B1
Conditions: with gna13_human GNA13, Q14344

| Variant | effect of a mutation on the interaction |
| --- | --- |
| E17K | causing an interaction |

Variants of: B1
Conditions: with h33_human H3-3A

| Variant | effect of a mutation on the interaction |
| --- | --- |
| E17K | causing an interaction |

Variants of: B1
Conditions: with hdac1_human HDAC1

| Variant | effect of a mutation on the interaction |
| --- | --- |
| E17K | causing an interaction |

Variants of: B1
Conditions: with hdac3_human HDAC3, O15379

| Variant | effect of a mutation on the interaction |
| --- | --- |
| E17K | causing an interaction |

Variants of: B1
Conditions: with h31_human H3C1

| Variant | effect of a mutation on the interaction |
| --- | --- |
| E17K | causing an interaction |

Variants of: B1
Conditions: with rash_human HRAS

| Variant | effect of a mutation on the interaction |
| --- | --- |
| E17K | causing an interaction |

Variants of: B1
Conditions: with ist1_human IST1

| Variant | effect of a mutation on the interaction |
| --- | --- |
| E17K | causing an interaction |

Variants of: B1
Conditions: with jak2_human JAK2, O60674

| Variant | effect of a mutation on the interaction |
| --- | --- |
| E17K | causing an interaction |

Variants of: B1
Conditions: with kalrn_human KALRN

| Variant | effect of a mutation on the interaction |
| --- | --- |
| E17K | causing an interaction |

Variants of: B1
Conditions: with kat6a_human KAT6A

| Variant | effect of a mutation on the interaction |
| --- | --- |
| E17K | causing an interaction |

Variants of: B1
Conditions: with kdm5a_human KDM5A

| Variant | effect of a mutation on the interaction |
| --- | --- |
| E17K | causing an interaction |
